Test results: US11406644B2, “Tropomyosin-related kinase (TRK) inhibitors” (Genzyme Corporation, priority 2013, dated 2022)

Sequences of proteins named here, by UniProt entry; tags and fusion partners are left off. Residues count along the entry.
UniProt Q16620, 456-822: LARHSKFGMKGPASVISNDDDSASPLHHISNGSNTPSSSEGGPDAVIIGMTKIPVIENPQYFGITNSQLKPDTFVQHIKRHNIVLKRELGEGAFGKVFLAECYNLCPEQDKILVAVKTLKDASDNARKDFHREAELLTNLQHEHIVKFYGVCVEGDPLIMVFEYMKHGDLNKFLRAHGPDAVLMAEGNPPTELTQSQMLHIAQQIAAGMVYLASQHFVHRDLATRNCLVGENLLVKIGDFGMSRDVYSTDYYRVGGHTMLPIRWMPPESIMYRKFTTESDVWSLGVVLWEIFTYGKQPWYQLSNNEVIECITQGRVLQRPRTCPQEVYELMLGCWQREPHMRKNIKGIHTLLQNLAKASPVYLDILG

Assays:
TrkB = TrkB (Homo sapiens (Human), UniProt Q16620); assay: TrkB activity, off-chip mobility shift assay (LabChip 3000); type: biochemical
Excerpt: Reagents and consumables were purchased from Sigma Aldrich, Carna Biosciences, or Caliper Life Sciences. All assay reaction conditions for IC50 determinations were within the linear range with respect to time and enzyme concentration. […] The LabChip 3000 separates and measures the fluorescent signal of fluorescein labeled peptide substrate and fluorescein labeled peptide product present in each well. Results are expressed as percent conversion by measuring peak height for both the substrate and product and dividing the product peak height by the sum of peak heights for both substrate and product.

[1] = tested on: Male Lewis rats with PGPS knee arthritis; assay: Reactivated peptidoglycan-polysaccharide (PGPS) knee arthritis; type: in vivo, rat; settings: 0.06 mg intra-articular on day −7
Excerpt: Male Lewis rats were acclimated to the testing facility for 7 days. The rats were housed in 5 per cage in shoe-box polycarbonate cages with wire tops, wood chip bedding and suspended food and water bottles.
On day −21, the male Lewis rats were randomized into treatment groups by body weight. The rats were anesthetized and injected with peptidoglycan-polysaccharide (PGPS) into the right knee to induce PGPS arthritis. Arthritis was reactivated on days 0 and 14 by an IV tail injection of PGPS.
The rats were weighed at baseline on days 0, 4, 14 and 18. Knee thickness was measured by caliper at baseline and on days 0, 2, 4, 14, 16 and 18. Gait analysis occurred on days 0-4 and 14-18, with video recording of selected animals on days 3 and 17. Gait analysis was performed by applying ink to the ventral surface of the foot and documenting weight bearing during movement across paper.
The animals were terminated at day 18. […]
Body weights, gait deficiency and caliper measurements were analyzed using a one-way analysis of variance (1-way ANOVA) with Dunnett's multiple comparison post-test. Gait scores were analyzed using a Kruskal-Wallis test (non-parametric ANOVA) with Dunn's multiple comparison post-test. Histopathology scores were analyzed using a Kruskal-Wallis test (non-parametric ANOVA) with Dunn's multiple comparison post-test.

SMILES	IC50 (TrkB)	knee caliper measurements ([1]; days 0, 2, 4, 16, 18)	gait scores and deficiency ([1]; first reactivation (days 1-4) and days 15, 17, 18 of second reactivation)
CCOc1cc(Cn2cnc3cc(N4CCN(C)CC4)cnc32)ccc1OCc1ccc(OC)nc1 [Ex. 3-28, 3-(3-Ethoxy-4-((6-methoxypyridin-3-yl)methoxy)benzyl)-6-(4-methylpiperazin-1-yl)-3H-imidazo[4,5-b]pyridine]	179 nM	–	–
C[C@]12C=CC(=O)C=C1CC[C@H]1[C@@H]3C[C@@H](O)[C@](O)(C(=O)CO)[C@@]3(C)C[C@H](O)[C@@]12F [Triamcinolone, reference compound]	–	significantly reduced	significantly reduced
